Antibody variant affinities, Ab-14 light chain, assay B

From the AlphaSeq antibody data of Li et al. 2023 (doi:10.1038/s41467-023-39022-2), copy in the FLAb collection.

Target: peptide PDVDLGDISGINAS, taken from heptad repeat 2 (HR2) of SARS-CoV-2 spike.

Each scFv is VH, a 15-residue (Gly4Ser)3 linker, VL, as in the parent Ab-14, and differs from it in the CDRs of the light chain only.
VH: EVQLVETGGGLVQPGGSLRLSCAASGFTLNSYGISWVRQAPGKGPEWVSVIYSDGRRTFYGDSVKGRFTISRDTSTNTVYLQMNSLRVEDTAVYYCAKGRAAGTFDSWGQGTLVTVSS
VL: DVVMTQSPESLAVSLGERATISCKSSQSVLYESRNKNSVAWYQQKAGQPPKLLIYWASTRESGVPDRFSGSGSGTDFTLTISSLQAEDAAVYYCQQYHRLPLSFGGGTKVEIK

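These sequences belong to a second round, designed from the earlier measurements on random variants of the parent. Group labels follow the data file (Rand: our label for a block that the file lists under HC and that is probably the random mutants of the ten best first-round binders; En: ensemble of fine-tuned language models; GP: Gaussian process model; HC: hill climbing; Gen: genetic algorithm; Gibbs: Gibbs sampling; a sequence that several methods proposed may carry one label only). In AlphaSeq, yeast of one mating type display the scFv and yeast of the other type display the target. Binding brings cells together so that they mate, and sequencing counts the barcode pairs among the diploids. Read counts were normalised to the haploid input and turned into Kd by a linear fit to BCL2-family pairs of known affinity, for each replicate. There are six technical replicates.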

Variants are written as CDR1, CDR2 and CDR3 of the light chain (limits as in the source). Parent: KSSQSVLYESRNKNSVA, WASTRES, QQYHRLPLS.
This list holds designs with more than six substitutions.
Kd is apparent (estimated from mating counts) and averaged on the log scale over replicates with a signal. Smaller is tighter.
A pair that was not seen in any replicate is written "no signal"; this usually means weak binding, but a binder can also be missed.
Of ten entries with the parent sequence, four were seen in most replicates (averages 2.2 nM to 240 nM), three in one and three in none, so single entries are noisy.

Variant KISYNYLIESKNLNSVA / EMTTREY / QDYDRLPLS [En_HC] gave no signal (0 of 6 replicates; controls 1 of 18). For QLSMITGHYQMIKNNVA / EMETREN / QQYDRLPLS [En_Gen], the assay gave 12 nM (6 of 6 replicates; controls 1 of 18). Variant KLRQSCLYEDRNKNNVA / MASQRCS / QQYHRLPLS [GP_Gibbs] gave 950 pM (6 of 6 replicates; controls 3 of 18). With KSHQSCLYESRNKNSVA / GASHRES / QWFHRLTLS [Rand] the result was no signal (0 of 6 replicates; controls 0 of 18). For KLRQSTHIESFNKNNVA / EMTTREV / QSYDRLPLS [En_HC], the assay gave 5.1 nM (6 of 6 replicates; controls 0 of 18).

With NMNVGLNFGKIQEQAIA / EVEKRES / QQYARLPLT [En_Gibbs] the result was 2.8 nM (6 of 6 replicates; controls 1 of 18). With KVMQSMWYESRNQNSVA / HASTREQ / QQYHRLPLQ [GP_Gibbs] the result was 300 nM (6 of 6 replicates; controls 0 of 18). Variant MINMEIGIEDMKWQAVA / SAHVRAH / QQYGRLPFS [En_Gibbs] gave 260 nM (2 of 6 replicates; controls 0 of 18). Variant KLQMSNWYESRMHNSVA / DASVRES / QQYHRLPLS [GP_Gibbs] showed 380 pM (6 of 6 replicates; controls 1 of 18). For KLSQSQEYESRNINSVA / NASTRLT / QQYHRLPLS [GP_Gibbs], the assay gave 1.8 nM (6 of 6 replicates; controls 1 of 18).

With MVNGIMDHLSKNTNNVA / ETTTRNE / QQYDRLPLS [En_Gen] the result was no signal (0 of 6 replicates; controls 0 of 18). Variant TITGMVEEIGTTQKNIA / EGEFRCM / QQYSRLPLS [En_Gibbs] showed 110 nM (6 of 6 replicates; controls 1 of 18). Variant KIGFTLNMLEHKQNNVA / DLVTREQ / QQYHRLPLS [En_Gen] gave 13 nM (6 of 6 replicates; controls 0 of 18). With HMSAVTLMGQRHVNSVA / QMTTREN / QQYDRLPLA [En_Gen] the result was 2.6 nM (6 of 6 replicates; controls 0 of 18). For KSSCSEPYDSPNSNSVA / NASQRER / QQYHRLPLS [GP_Gibbs], the assay gave 42 nM (6 of 6 replicates; controls 0 of 18).

For MMSQMFEGLSTSKNPVA / QVSTREE / QQYHRLPLS [En_HC], the assay gave 7.3 nM (6 of 6 replicates; controls 0 of 18). With FLAYASDQTGLQKNAIA / QVNLKEN / QQYERLPLA [En_Gibbs] the result was 180 nM (2 of 6 replicates; controls 1 of 18). Variant IVSGGMLMESRNKNSVA / NAETREY / QHYDRLPLS [En_HC] gave 47 nM (5 of 6 replicates; controls 0 of 18). Variant NLVGRVPDMYDGRNAIA / DMHARAT / QQYFRLPLA [En_Gibbs] showed 2.4 nM (6 of 6 replicates; controls 1 of 18). With HVEHDWLESNATMKAVA / EGATLAD / QQYGRLPLS [En_Gibbs] the result was 10 nM (6 of 6 replicates; controls 0 of 18).

Variant MLSQMFGLGMKTSNSVA / QASMRFN / QQYDRLPLI [En_Gen] gave 40 nM (5 of 6 replicates; controls 0 of 18). For HMKDELGLGPKTQSSVA / HGSMREP / QDYYRLPLG [En_Gibbs], the assay gave 1.1 nM (6 of 6 replicates; controls 2 of 18). For KQPVLGLYGSRNKNSVA / EASTRES / QQYHRLPLS [GP_Gibbs], the assay gave 650 pM (6 of 6 replicates; controls 0 of 18). With KLGSSTRFESNNKASIA / DNSTRES / QQYHRLPLS [En_HC] the result was 4.3 nM (6 of 6 replicates; controls 0 of 18). Variant KLSASVEYEDRNKNSVA / HASTREQ / QQYHRLPLM [GP_Gibbs] gave 850 pM (6 of 6 replicates; controls 0 of 18).

With HMSMLTLQGMRHTNSVA / QMTTREN / QQYDHLPLS [En_Gen] the result was 6.4 nM (6 of 6 replicates; controls 1 of 18). Variant SLYDATGMESRNKNPIA / DVSTRPD / QQYHRLPLS [En_HC] gave 340 pM (6 of 6 replicates; controls 1 of 18). For MGLESYQQGVHEMNNIA / EGDQKLD / QQYYRLPLL [En_Gibbs], the assay gave 2.9 nM (5 of 6 replicates; controls 0 of 18). For MYSQSYGGEQRNKNSVA / HASTREE / QQYHRLPLS [GP_Gibbs], the assay gave 570 pM (6 of 6 replicates; controls 0 of 18). Variant KVMQSMWYESRNQNSVA / HASQREQ / QQYHRLPLQ [GP_Gibbs] gave 2.9 nM (6 of 6 replicates; controls 0 of 18).

With TLSQTTDLESVHKNSIA / DLMTRES / QQYHRLPLS [En_HC] the result was 1.2 nM (6 of 6 replicates; controls 1 of 18). Variant HISQMVMAGSCNKNNVA / QVSTREE / QQYHRLPLS [En_HC] gave 7.7 nM (6 of 6 replicates; controls 0 of 18). With TISQSFLMENQFKNSVA / QASTREH / QCYDRLPLS [En_HC] the result was 22 nM (6 of 6 replicates; controls 0 of 18). Variant KISESWLYEPRNSNSVA / NASTRLQ / QQYHRLPLS [GP_Gibbs] showed 450 pM (6 of 6 replicates; controls 1 of 18). Variant KLGDMVHTESRNKNSIA / DMRTRES / QQYFRLPLS [En_HC] showed 280 pM (6 of 6 replicates; controls 2 of 18).

Values of this round are not directly comparable with the first-round values of the same sequences.
As a blank, each scFv also met three strains without target: over all light chain designs, 4% of these pairings were detected, typically at 430 nM and seldom below 38 nM. Also given: how often the same scFv was detected with the empty control strains.
The authors averaged sequences with at least three values out of six and counted those with two or fewer as poor binders.